# Earlier results as cited in patent publication US7163589B2 (priority 2001, dated 2007).
# Conditions: cited from earlier work
substance,measurement,value
2-3 dihydrodecafluoropentane,Solubility of Solvent in Water,140 ppm
same,Solubility of Water in Solvent,490 ppm
